{"source": "patent US6759509B1", "about": "“Branched peptide linkers” (Bristol-Myers Squibb Company, priority 1996, dated 2004)", "assay": "decomposition of the isolated drug/linker in solution", "type": "physicochemical", "conditions": "by HPLC for Example 31", "method": "A solution of MEt-IDA-(Phe-Lys(Mtr)-PABC-MMC)2 30 (134.6 mg, 0.0590 mmol) in methylene chloride (3 mL) at rt was treated with anisole (1.28 mL, 200 equiv) and 1 M chloroacetic acid in methylene chloride (1.18 mL, 20 equiv). After 3.5 h ethyl acetate (30 mL) was added. The resulting purple solid was collected by filtration, washed with ethyl acetate and air-dried (97.8 mg, 82%). […] MS (FAB) 1738.3 (M+Na)^+, 1776.4 (M+K)^+.\nMEt-IDA-(Phe-Lys(Mtr)-PABC-7-Paclitaxel)2 33 (333.0 mg, 0.0861 mmol) in methylene chloride (3 mL) was treated with anisole (1.87 mL, 200 equiv) and 1 M chloroacetic acid in methylene chloride (1.72 mL, 20 equiv). After 4 h the mixture was diluted with ether (30 mL). The resulting suspension was sonicated for several minutes and then the solid was collected by filtration and washed with ether (256.3 mg, 97%). […] MS (ESI) 2778.2 (MH)^+."}
{"substance": "MEt-IDA-(Phe-Lys-PABC-7-Paclitaxel)2.2ClCH2CO2H [Example 34]", "values": [{"measurement": "stability of the product in solution", "result": "decompose slowly in solution"}]}
